Data taken from patent US11299518B2, “Fusion respiratory syncytial virus inhibitors and use thereof” (priority 2016, dated 2022).

How the values were obtained:
[1] = CD spectroscopy, percentage of helicity; type: physicochemical; settings: CD at 222 nm, 10 mM phosphate buffer pH 7.5, 50 μM peptide, 25° C.
Description: The secondary structure of the peptides was then characterized by circular dichroism (DC) as described below.
The circular dichroism spectra were acquired on a Jasco J-810 and on a Chirascan spectropolarimeter. The samples were prepared in 10 mM phosphate buffer, pH 7.5, at a peptide concentration of 50 μM. Data were recorded at 25° C. by stepscan from 180 nm to 260 nm in a 0.1 cm pathlength quartz cell using 0.2 nm wavelength increments, 1 nm bandwidth and a response time of 0.5 sec. Each spectrum was an average of three measurements and was subtracted from buffer baseline. The data were converted to per residue molar ellipticity units [θ] (deg·cm2·dmol−1·residue−1) and smoothed using the Igor software. The percentage of helicity was calculated as it follows:
[formula] whereby CD222=molar ellipticity at 222 nm in [mdeg], N=number of amino acids in the peptide and C=peptide molar concentration [mol/l].

[2] = test system: recombinant green fluorescent protein (GFP)-expressing RSV virus (strain A2); type: cell-based; settings: A549 cells
Description: The inhibitory activity of the peptides of the invention was assessed in a cellular viral fusion assay as compared to comparative peptides as follows. A549 cells were infected with a recombinant green fluorescent protein (GFP)-expressing RSV virus (strain A2) obtained as described below and in Hallak et al., 2000, Virology, 271:264-275, and the inhibitory activity of the peptides was quantified by flow cytometry.
Following rapid thawing of the frozen eGFP encoding RSV virus at […], the virus was vortexed for 2 min, and pipetted up and down to break aggregates. Serial 4-fold dilutions of inhibitors were prepared in glass tubes and mixed with a volume of virus required to achieve approximately 50% of infection in 200 μl of media containing 2% of FCS. The resulting mixture was added to 24-well plates containing A549 cells. Cells were incubated for 2 hours at 37° C., the media was replaced, and cells were incubated for an additional 24 hours. Cells were treated with 300 μl of trypsin for 10 min at 37° C., and the detached cells were diluted in 1 ml of culture medium. Following centrifugation at 1′700 rpm, the pellet was resuspended in 300 μl of PBS+1% SBF (V/V) and GFP positive cells were counted by FACS analysis.

For CC[C@H](C)[C@@H]1NC(=O)[C@H](Cc2ccccc2)NC(=O)[C@@](C)(NC(=O)[C@H](CC(C)C)NC(=O)[C@H](CO)NC(=O)[C@H](CCC(N)=O)NC(=O)[C@H](CCC(=O)O)NC(C)=O)CCCC=CCCC[C@@](C)(C(=O)N[C@@H](CO)C(=O)N[C@@H](CC(=O)O)C(=O)N[C@@]2(C)CCCC=CCCC[C@@](C)(C(=O)N[C@H](C(N)=O)C(C)C)NC(=O)[C@H](Cc3c[nH]cn3)NC(=O)[C@H](CC(C)C)NC(=O)[C@H](CC(C)C)NC2=O)NC(=O)[C@H](CCCNC(=N)N)NC1=O [Peptide 3ac, EQSL X504FIR X508 SD X511 LLH X515 V], which “% helicity” value [1] is on record?
Its value is 47.2%.

And the EC50 ([2]; FACS, read-out: EC50, block of viral infection of cells)?
The EC50 was 15.3 ± 5.9 µM.

Which results are given for CC[C@H](C)[C@@H]1NC(=O)[C@H](CCCCN)NC(=O)[C@](C)(NC(C)=O)CCCCCCC=CCCC[C@@](C)(C(=O)N[C@@H](Cc2ccccc2)C(=O)N[C@H](C(=O)N[C@@H](CCCNC(=N)N)C(=O)N[C@]2(C)CCCCCCC=CCCC[C@@](C)(C(=O)N[C@H](C(N)=O)C(C)C)NC(=O)[C@H](Cc3c[nH]cn3)NC(=O)[C@H](CC(C)C)NC(=O)[C@H](CC(C)C)NC(=O)[C@H](CCC(=O)O)NC(=O)[C@H](CC(=O)O)NC(=O)[C@H](CO)NC2=O)[C@@H](C)CC)NC(=O)[C@H](CC(C)C)NC(=O)[C@H](CO)NC(=O)[C@H](CCC(N)=O)NC(=O)[C@H](CC(N)=O)NC1=O [Peptide 4ef, 8497 KINQSL X504 FIR 8508 SDELLH X515 V, reference compound]?
% helicity [1]: 50.7%; inhibitory activity in cellular viral fusion assay [2]: inactive
